Test results as given in PubChem BioAssay AID624483 (NMMLSC, 2012).
The list shows a part of the results, in another mix than the full data. Some results for these compounds are left out of this collection, so the calls shown say nothing about other tests. Activity calls are given as the source filed them. No stated cut-off is given here; in the data, active means fluorescence intensity above about 16000; inconclusive means no clear call, values can overlap the other calls; inactive means below that.

Assay: counter-screen for toxin protease inhibitors: compound fluorescence, primary screen, artefact control for toxin protease inhibitor project, biochemical, multiplex microsphere, HTS (AID 624483); further: test concentration not given here
Conditions: compound autofluorescence counterscreen, microsphere flow cytometry; hits give high values

Q: For `CN1[C@@H]2CC[C@H]1CC(OC(=O)C(O)(c1ccccc1)c1ccccc1)C2` (stereo partly specified), which fluorescence intensity is on record?
A: Its fluorescence intensity is inactive: 3610.

Q: For `O=C(NCC1(N2CCCCC2)CCCCC1)c1cc([N+](=O)[O-])ccc1Cl`, which fluorescence intensity is on record?
A: Its fluorescence intensity is inactive: 4860.

Q: For `Cc1ccc(C(=O)NCC2(N3CCCCC3)CCCCC2)cc1`, which fluorescence intensity is on record?
A: Its fluorescence intensity is inactive: 9510.

Q: Which fluorescence intensity does the source give for `COc1cc(SC)ccc1C(=O)NCC1(N(C)C)CCCCC1` here?
A: The fluorescence intensity was inactive: 3220.

Q: With `CCN(CC)CC(C)C(C)OC(=O)C(O)(c1ccccc1)c1ccccc1` (stereo unspecified) as the molecule, how does the fluorescence intensity read?
A: Its fluorescence intensity is inactive: 3930.

Q: For `CC(C)N1C(=O)CC2(CCN(CCOC(=O)C(O)(c3ccccc3)c3ccccc3)CC2)C1=O`, which fluorescence intensity is on record?
A: Its fluorescence intensity is inactive: 4260.

Q: With `CN(C)C1CCCC1OC(=O)C(O)(c1ccccc1)c1ccccc1` (stereo unspecified) as the molecule, how does the fluorescence intensity read?
A: Its fluorescence intensity is inactive: 2440.

Q: With `CN(C)c1ccc(C(=O)NCC2(N(C)C)CCCCC2)cc1` as the molecule, how does the fluorescence intensity read?
A: Its fluorescence intensity is inactive: 4140.

Q: Which fluorescence intensity does the source give for `Cc1ccccc1C(=O)NCC1(N2CCCCC2)CCCCC1` here?
A: Its fluorescence intensity is inactive: 4200.

Q: With `COc1ccc(C(=O)NCC2(N(C)C)CCCCC2)cc1` as the molecule, how does the fluorescence intensity read?
A: The fluorescence intensity was inactive: 3550.

Q: For `O=C(NCC1(N2CCCCC2)CCCCC1)c1cccc(Br)c1`, which fluorescence intensity is on record?
A: The fluorescence intensity was inactive: 6690.

Q: With `Cc1cc(C(=O)NCC2(N3CCCCC3)CCCCC2)ccc1[N+](=O)[O-]` as the molecule, how does the fluorescence intensity read?
A: Its fluorescence intensity is inactive: 4530.

Q: For `CCN1CCCC(OC(=O)C2(O)c3ccccc3C=Cc3ccccc32)C1` (stereo unspecified), which fluorescence intensity is on record?
A: The fluorescence intensity was inactive: 2500.

Q: Which fluorescence intensity does the source give for `O=C(NCC1(N2CCCCC2)CCCCC1)c1cc(F)c(F)cc1Cl` here?
A: Its fluorescence intensity is inactive: 7140.

Q: For `C=CCN1CCN(CCOC(=O)C(O)(c2ccccc2)c2ccccc2)CC1`, which fluorescence intensity is on record?
A: Its fluorescence intensity is inactive: 4160.

Q: For `COc1cc(C(=O)NCC2(N(C)C)CCCCC2)c([N+](=O)[O-])cc1OC`, which fluorescence intensity is on record?
A: Its fluorescence intensity is inactive: 3320.

Q: With `CN(C)C1(CNC(=O)c2ccc(Br)cc2)CCCCC1` as the molecule, how does the fluorescence intensity read?
A: The fluorescence intensity was inactive: 3920.

Q: Which fluorescence intensity does the source give for `O=C(NCC1(N2CCCCC2)CCCCC1)c1cccc(Cl)c1` here?
A: The fluorescence intensity was inactive: 3350.

Q: For `COc1ccc(Cl)cc1C(=O)NCC1(N(C)C)CCCCC1`, which fluorescence intensity is on record?
A: The fluorescence intensity was inactive: 3480.

Q: Which fluorescence intensity does the source give for `COc1cccc(C(=O)NCC2(N3CCCCC3)CCCCC2)c1` here?
A: Its fluorescence intensity is inactive: 5380.

Q: For `O=C(OC1CN2CCC1CC2)C(CO)(c1ccccc1)c1ccccc1` (stereo unspecified), which fluorescence intensity is on record?
A: The fluorescence intensity was inactive: 2280.

Q: For `O=C(OCCN1CCCC1)C(O)(c1ccccc1)c1ccccc1`, which fluorescence intensity is on record?
A: Its fluorescence intensity is inactive: 4110.

Q: Which fluorescence intensity does the source give for `CC(C)Oc1ccc(C(=O)NCC2(N(C)C)CCCCC2)cc1` here?
A: The fluorescence intensity was inactive: 3160.

Q: With `CN(C)c1cccc(C(=O)NCC2(N(C)C)CCCCC2)c1` as the molecule, how does the fluorescence intensity read?
A: The fluorescence intensity was inactive: 2680.

Q: With `C=C(C)C#CC(O)(C(=O)OC1CCN(C)CC1)c1ccccc1` (stereo unspecified) as the molecule, how does the fluorescence intensity read?
A: The fluorescence intensity was inactive: 2900.

Q: Which fluorescence intensity does the source give for `COc1ccc(Br)c(C(=O)NCC2(N3CCCCC3)CCCCC2)c1` here?
A: Its fluorescence intensity is inactive: 9800.
